The assay has as its system HEK293. Kind of assay: Selectivity for alpha1G T-type calcium channel over alpha-1B N-type calcium channel expressed in HEK293 cells. As to conditions: Homo sapiens. The class given is cell-based.
As to `CCN1CCN(CCCNC(=O)c2ccc3c(=O)n(Cc4ccc(Cl)cc4)c(=S)[nH]c3c2)CC1`, the Selectivity index was found to be 2.8.

With `O=C(NCCCN1CCCC1)c1ccc2c(=O)n(Cc3ccc(Cl)cc3)c(=S)[nH]c2c1`, the Selectivity index was determined as 14.8.

As for `O=C(NCCCN1CCCCC1)c1ccc2c(=O)n(Cc3ccc(Cl)cc3)c(=S)[nH]c2c1`, the Selectivity index turned out to be 3.9.

Turning to `CC1CCN(CCCNC(=O)c2ccc3c(=O)n(Cc4ccc(Cl)cc4)c(=S)[nH]c3c2)CC1`, the Selectivity index worked out at 5.8.

On to `CCC1CCCCN1CCCNC(=O)c1ccc2c(=O)n(Cc3ccc(Cl)cc3)c(=S)[nH]c2c1` (stereo not given), for which the Selectivity index was 21.

For the origin of these results see ChEMBL document CHEMBL1144535, “3D pharmacophore based virtual screening of T-type calcium channel blockers” (Bioorg Med Chem, 2007).
